Values of other authors in publication PMC10616113, “Novel 3-phenylquinazolin-2,4(1H,3H)-diones as dual VEGFR-2/c-Met-TK inhibitors: design, synthesis, and biological evaluation” (Scientific Reports, 2023).

Sequences of proteins named here, by UniProt entry; tags and fusion partners are left off. Residues count along the entry.
UniProt P35968, 20-1356: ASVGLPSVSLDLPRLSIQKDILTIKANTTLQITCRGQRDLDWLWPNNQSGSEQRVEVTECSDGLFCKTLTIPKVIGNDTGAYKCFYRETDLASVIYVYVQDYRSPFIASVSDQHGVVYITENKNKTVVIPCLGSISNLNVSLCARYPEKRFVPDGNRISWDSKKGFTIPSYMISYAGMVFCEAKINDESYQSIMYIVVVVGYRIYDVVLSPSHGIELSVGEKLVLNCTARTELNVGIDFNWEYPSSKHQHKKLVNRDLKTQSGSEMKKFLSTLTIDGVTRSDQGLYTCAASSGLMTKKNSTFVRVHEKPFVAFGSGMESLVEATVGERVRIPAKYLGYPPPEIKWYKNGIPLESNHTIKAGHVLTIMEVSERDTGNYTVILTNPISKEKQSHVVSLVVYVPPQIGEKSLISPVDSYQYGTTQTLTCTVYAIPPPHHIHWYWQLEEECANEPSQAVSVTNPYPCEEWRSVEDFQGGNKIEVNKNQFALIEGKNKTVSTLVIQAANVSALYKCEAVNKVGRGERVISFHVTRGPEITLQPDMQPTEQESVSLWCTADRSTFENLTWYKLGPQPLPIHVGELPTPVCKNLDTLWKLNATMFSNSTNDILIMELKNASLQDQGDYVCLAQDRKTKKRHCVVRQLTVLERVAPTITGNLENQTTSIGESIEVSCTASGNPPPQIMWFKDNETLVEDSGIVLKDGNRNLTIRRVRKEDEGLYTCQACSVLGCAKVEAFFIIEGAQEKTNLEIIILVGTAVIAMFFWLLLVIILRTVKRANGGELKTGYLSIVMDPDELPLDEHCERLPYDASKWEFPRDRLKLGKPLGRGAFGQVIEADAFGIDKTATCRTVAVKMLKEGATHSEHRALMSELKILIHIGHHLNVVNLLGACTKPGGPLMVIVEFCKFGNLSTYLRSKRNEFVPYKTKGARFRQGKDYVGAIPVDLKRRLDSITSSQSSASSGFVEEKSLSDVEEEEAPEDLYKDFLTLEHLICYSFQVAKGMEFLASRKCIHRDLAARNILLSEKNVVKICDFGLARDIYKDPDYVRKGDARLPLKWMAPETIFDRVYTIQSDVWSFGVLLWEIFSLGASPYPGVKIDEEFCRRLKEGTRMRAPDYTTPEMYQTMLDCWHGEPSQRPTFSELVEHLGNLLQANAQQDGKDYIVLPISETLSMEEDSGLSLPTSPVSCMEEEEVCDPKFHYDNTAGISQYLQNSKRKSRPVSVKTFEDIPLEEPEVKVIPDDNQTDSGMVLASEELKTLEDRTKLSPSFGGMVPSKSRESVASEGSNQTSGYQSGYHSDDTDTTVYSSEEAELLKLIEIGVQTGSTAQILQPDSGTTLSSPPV

Biological target: VEGFR-2 (Homo sapiens, UniProt P35968)
Settings: read-out: VEGFR-2 IC50; cited from earlier work

## MGCD-265 [XVII]
  IC50: 10 nM
